Measurements reported in ChEMBL document CHEMBL1121477, “Noval antitumor nitrosoureas and related compounds and their reactions with DNA” (1980).

Experiment: Percent ability of compound to produce DNA interstrand cross-links was determined by the ethidium fluorescence assay at 6 hr and compared with antileukemic property
Assay type: functional
Set-up: concentration or dose not given beside the values
Outline: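 λ-DNA (1.0 A260 unit) was incubated with 5 mM compound in 50 mM potassium phosphate pH 7.2 at 37 °C. Aliquots went into 20 mM potassium phosphate pH 11.8, 0.4 mM EDTA and 0.5 µg/mL ethidium, were heated at 96 °C for 3 min and rapidly cooled. Fluorescence relative to control ×100 gives % DNA molecules with ≥1 interstrand cross-link; accuracy about ±2%.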

Work on `N/C(=N\[N+](=O)[O-])N(CCCl)N=O` yielded an Activity of 0%.
